Reference: patent US9511134B2, “Inducing immune responses to influenza virus using polypeptide and nucleic acid compositions” (priority 2006, dated 2016)
Like-named read-outs stand apart in the source and are kept apart here.

Legend:
Format in all cases: binding
[1] = target: DRB1*0404 (Homo sapiens, UniProt P01903+P01911, A100R/A169T/F76Y/I96L/K127E/L162R/M171V/N62H/P40V/Q125Y/R42H/S133A/S149N/S66Y/V209L/W38E); assay: biochemical
[2] = target: T1, DRB1*0101 (Homo sapiens, UniProt P01903+P01911, A100R/D57E/F55L/F60I/F76Y/I96L/L162R/M171V/P40L/Q125E/R42F/V115G/Y59C); assay: biochemical
T1 construct: made in house; host or cells: EBV-transformed homozygous human B cell lines, transfected fibroblasts or single-allele 721.221 transfectants

[3] = target: DRB1*0901 (Homo sapiens, UniProt P01903+P01911, A100R/A103E/D57H/D86V/F55Y/F60I/F76Y/I96F/K127E/L162R/M171V/P40D/Q125H/Q99R/R33Q/R42F/S133A/S66N/T210M/V115G/W38K/Y107V/Y59G/Y89S); conditions: read-out: IC50 nM to purified HLA DRB1*0901
[4] = target: T2, DRB1*0301 (Homo sapiens, UniProt P01903+P01911, A100K/A102G/A103R/A169T/F55Y/I96L/K41T/L162R/M171V/P40S/Q125H/Q178H/Q39Y/R42S/S66N/T106N/T262R/W38E/Y61H); conditions: read-out: IC50 nM to purified HLA DRB1*0301
T2 construct: made in house; host or cells: EBV-transformed homozygous human B cell lines, transfected fibroblasts or single-allele 721.221 transfectants

[5] = target: DRB1*0701 (Homo sapiens, UniProt P01903+P01911, A100R/A102G/A103Q/D57E/D86V/E43K/F76Y/K127E/L162R/M171V/P40G/Q125H/Q99D/R33Q/R42Y/R54Q/S133A/S66F/T210M/V115G/Y107V/Y59L/Y89S); conditions: read-out: IC50 nM to purified HLA DRB1*0701
[6] = target: T3, DRB1*0401 (Homo sapiens, UniProt P01903+P01911, A100K/A169T/F76Y/I96L/K127E/L162R/M171V/N62H/P40V/Q125Y/R42H/S133A/S149N/S66Y/V115G/V209L/W38E); assay: biochemical
T3 construct: made in house; host or cells: EBV-transformed homozygous human B cell lines, transfected fibroblasts or single-allele 721.221 transfectants

[7] = target: T4, DRB4*0101 (Homo sapiens, UniProt P01903+P13762, G164S); assay: biochemical; conditions: IC50 nM to purified HLA DRB4*0101
T4 construct: made in house; host or cells: EBV-transformed homozygous human B cell lines, transfected fibroblasts or single-allele 721.221 transfectants

[8] = target: T5, DRB1*1501 (Homo sapiens, UniProt P01903+P01911); assay: biochemical
T5 construct: made in house; host or cells: EBV-transformed homozygous human B cell lines, transfected fibroblasts or single-allele 721.221 transfectants

[9] = target: DRB1*0802 (Homo sapiens, UniProt P01903+P01911, A100R/A103L/A169T/F76Y/H45Y/I96F/K41T/L162R/M171V/P40S/Q125H/Q178H/Q39Y/Q99D/R218S/R42G/S66Y/V115G/W38E); conditions: read-out: IC50 nM to purified HLA DRB1*0802
[10] = target: DRB1*1101 (Homo sapiens, UniProt P01903+P01911, A100R/A169T/A87E/I96F/K41T/L162R/M171V/P40S/Q125H/Q178H/Q39Y/Q99D/R42S/S66Y/T262R/V115G/W38E); conditions: read-out: IC50 nM to purified HLA DRB1*1101
[11] = target: DRB1*1302 (Homo sapiens, UniProt P01903+P01911, A100E/A169T/K41T/L162R/M171V/P40S/Q125H/Q178H/Q39Y/Q99D/R42S/S66N/T262R/V115G/W38E/Y61H); conditions: read-out: IC50 nM to purified HLA DRB1*1302
[12] = target: DRB1*0405 (Homo sapiens, UniProt P01903+P01911, A100R/A169T/D86S/F76Y/I96L/K127E/L162R/M171V/N62H/P40V/Q125Y/R42H/S133A/S149N/S66Y/V115G/V209L/W38E); assay: biochemical
[13] = read-out: IC50 nM to purified HLA DRB1*0404
[14] = IC50 nM to purified HLA DRB1*0101
[15] = IC50 nM to purified HLA DRB1*0401

Structure (SMILES)	IC50 [1, 13] [nM]	IC50 [2, 14] [nM]	IC50 ([2]; read-out: IC50 nM to purified HLA DRB1*0101) [nM]	IC50 [3] [nM]	IC50 [4] [nM]	IC50 [5] [nM]	IC50 [6, 15] [nM]	IC50 ([6]; read-out: IC50 nM to purified HLA DRB1*0401) [nM]	IC50 [7] [nM]	IC50 ([8]; IC50 nM to purified HLA DRB1*1501) [nM]	IC50 [9] [nM]	IC50 [10] [nM]	IC50 [11] [nM]	IC50 ([12]; read-out: IC50 nM to purified HLA DRB1*0405) [nM]	IC50 ([1]; IC50 nM to purified HLA DRB1*0404) [nM]	IC50 [12] [nM]	IC50 ([8]; read-out: IC50 nM to purified HLA DRB1*1501) [nM]
CC[C@H](C)[C@H](NC(=O)CNC(=O)[C@@H](N)CCCCN)C(=O)N[C@@H](CC(C)C)C(=O)NCC(=O)N[C@@H](Cc1ccccc1)C(=O)N[C@H](C(=O)N[C@@H](Cc1ccccc1)C(=O)N[C@H](C(=O)N[C@@H](CC(C)C)C(=O)N[C@H](C(=O)N[C@H](C(=O)N1CCC[C@H]1C(=O)N[C@@H](CO)C(=O)N[C@@H](CCC(=O)O)C(=O)O)C(C)C)[C@@H](C)O)[C@@H](C)O)C(C)C [Flu.M1.60]	1	28	15	33	2610	11	5.6	4.8	767	129	33	37	10	6			
CC[C@H](C)[C@H](NC(=O)[C@H](Cc1ccccc1)NC(=O)[C@H](CC(C)C)NC(=O)[C@H](CCC(N)=O)NC(=O)[C@@H](N)CC(C)C)C(=O)N[C@@H](CCCCN)C(=O)N[C@@H](CC(=O)O)C(=O)N[C@@H](Cc1ccc(O)cc1)C(=O)N[C@@H](CCCNC(=N)N)C(=O)N[C@@H](Cc1ccc(O)cc1)C(=O)N[C@H](C(=O)N[C@@H](Cc1ccc(O)cc1)C(=O)N[C@@H](CCCNC(=N)N)C(=O)N[C@@H](CS)C(=O)N[C@@H](Cc1c[nH]cn1)C(=O)O)[C@@H](C)O [Flu.PB1.551]		6900					2910								4190	7980	
CC[C@H](C)[C@H](NC(=O)[C@H](CC(N)=O)NC(=O)[C@H](Cc1ccc(O)cc1)NC(=O)[C@H](CC(C)C)NC(=O)[C@H](CC(N)=O)NC(=O)[C@@H]1CCCN1)C(=O)N[C@@H](CCCNC(=N)N)C(=O)N[C@@H](CC(N)=O)C(=O)N[C@@H](CC(C)C)C(=O)N[C@@H](Cc1c[nH]cn1)C(=O)N[C@H](C(=O)N1CCC[C@H]1C(=O)N[C@@H](CCC(=O)O)C(=O)N[C@H](C(=O)N[C@@H](CS)C(=O)O)C(C)C)[C@@H](C)CC [Flu.PB1.599]	8.6																9.1
